Measured values taken from patent US20160326142A1, “PYRAZOLE CARBOXAMIDE COMPOUNDS, COMPOSITIONS AND METHODS OF USE” (Genentech, Inc., priority 2012, published 2016).
pKi: −log10 of the molar value.

Molecular target: T1, ITK (Homo sapiens, UniProt Q08881)
T1 construct: purchased Invitrogen PV3875
T1 sequence (Q08881 1-620): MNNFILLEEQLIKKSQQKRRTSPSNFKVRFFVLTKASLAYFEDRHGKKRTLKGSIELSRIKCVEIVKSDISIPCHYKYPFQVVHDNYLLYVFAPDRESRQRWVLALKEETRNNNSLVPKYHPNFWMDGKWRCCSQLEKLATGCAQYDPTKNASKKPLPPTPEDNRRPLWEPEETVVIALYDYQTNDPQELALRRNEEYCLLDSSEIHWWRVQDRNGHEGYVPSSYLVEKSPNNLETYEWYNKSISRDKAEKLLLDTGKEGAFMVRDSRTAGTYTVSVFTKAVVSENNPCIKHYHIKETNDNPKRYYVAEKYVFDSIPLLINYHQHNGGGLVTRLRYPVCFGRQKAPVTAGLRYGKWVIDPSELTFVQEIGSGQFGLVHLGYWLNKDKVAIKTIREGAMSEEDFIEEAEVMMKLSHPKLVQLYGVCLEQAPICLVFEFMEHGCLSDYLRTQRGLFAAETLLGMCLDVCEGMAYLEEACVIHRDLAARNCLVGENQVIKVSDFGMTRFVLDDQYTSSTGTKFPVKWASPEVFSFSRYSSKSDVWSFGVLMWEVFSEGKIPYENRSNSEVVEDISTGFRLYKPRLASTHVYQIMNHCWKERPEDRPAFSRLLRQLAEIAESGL
Experiment: ITK enzyme assay (Caliper or LCMS peptide phosphorylation)
Type: biochemical
Settings: purified ITK (Invitrogen PV3875), 20 μM ATP, Ki by Morrison's quadratic equation
Method: The ability of purified ITK (Invitrogen PV3875) to catalyze peptide phosphorylation is monitored using a Caliper LabChip 3000 microfluidic unit (Caliper assay) or by liquid chromatography-mass spectrometry (LCMS) using a Waters Acquity system (LCMS assay). […] Reactions are quenched by the addition of 2,2′,2″,2′″-(ethane-1,2-diyldinitrilo)tetraacetic acid (50 mM final). Non-phosphorylated substrate and phosphorylated product peptides are separated and quantified using a Caliper LabChip 3000 instrument. […] Reactions are quenched by the addition of trichloroacetic acid (5% v/v final). Non-phosphorylated substrate and phosphorylated product peptides are separated by ultra performance LC and detected by a coupled triple quadrupole MS device applying multiple reaction monitoring (MRM) for quantification. The area of the MRM-extracted mass signal is used to assess the inhibition by test compounds. Equilibrium dissociation constant (Ki) values for ITK inhibitors are calculated from plots of activity vs. inhibitor concentration using Morrison's quadratic equation that accounts for the potential of tight binding, and by also applying the conversion factor that accounts for competitive inhibition and the concentration of ATP used in the assay relative to its apparent Michaelis constant (Km,app).

CC1(CO)CCc2c(C(=O)Nc3cnn(Cc4ccccc4)c3)n[nH]c2C1 (stereo not shown) [Example 19a, N-(1-benzyl-1H-pyrazol-4-yl)-6-(hydroxymethyl)-6-methyl-4,5,6,7-tetrahydro-1H-indazole-3-carboxamide]
pKi: 6.89

CC1(C)CCc2[nH]nc(C(=O)Nc3cnn(Cc4ccccc4)c3)c2C1 [Example 7, N-(1-benzyl-1H-pyrazol-4-yl)-5,5-dimethyl-4,5,6,7-tetrahydro-1H-indazole-3-carboxamide]
pKi: 7.16

CC1(CO)CCc2c(C(=O)Nc3cnn(Cc4ccccc4)c3)n[nH]c2C1 (single isomer, unassigned) [Example 19b, N-(1-benzyl-1H-pyrazol-4-yl)-6-(hydroxymethyl)-6-methyl-4,5,6,7-tetrahydro-1H-indazole-3-carboxamide]
pKi: 8.10

O=C(Nc1cnn(Cc2ccccc2)c1)c1n[nH]c2c1CC1CC1C2 (single isomer, unassigned) [Example 22b, N-(1-benzyl-1-pyrazol-4-yl)-1,4,4a,5,5a,6-hexahydrocyclopropa[f]indazole-3-carboxamide]
pKi: 7.43

O=C(Nc1cnn(Cc2ccccc2)c1)c1n[nH]c2c1CCC1(COC1)C2 [Example 12, N-(1-benzyl-1H-pyrazol-4-yl)-1,4,5,7-tetrahydrospiro[indazole-6,3′-oxetane]-3-carboxamide]
pKi: 7.12

CC1CCc2c(C(=O)Nc3cnn(Cc4ccccc4)c3)n[nH]c2C1 (single isomer, unassigned) [Example 9b, N-(1-benzyl-1H-pyrazol-4-yl)-6-methyl-4,5,6,7-tetrahydro-1H-indazole-3-carboxamide]
pKi: 7.66

COC1(C)CCc2c(C(=O)Nc3cnn(Cc4ccccc4)c3)n[nH]c2C1 (single isomer, unassigned) [Example 48a, N-(1-benzyl-1H-pyrazol-4-yl)-6-methoxy-6-methyl-4,5,6,7-tetrahydro-1H-indazole-3-carboxamide]
pKi: 6.74

O=C(Nc1cnn(Cc2ccccc2)c1)c1n[nH]c2c1CCC1(CC1)C2 [Example 11, N-(1-benzyl-1H-pyrazol-4-yl)-1′,4′,5′,7′-tetrahydrospiro[cyclopropane-1,6′-indazole]-3′-carboxamide]
pKi: 8.00

CC1(C)CCc2c(C(=O)Nc3cnn(Cc4ccccc4)c3)n[nH]c2C1 [Example 6, N-(1-benzyl-1H-pyrazol-4-yl)-6,6-dimethyl-4,5,6,7-tetrahydro-1H-indazole-3-carboxamide]
pKi: 8.28

O=C(Nc1cnn(Cc2ccccc2)c1)c1n[nH]c2c1CCC1(CCOC1)C2 (single isomer, unassigned) [Example 65b, N-(1-benzyl-1H-pyrazol-4-yl)-1′,4,4′,5,5′,7′-hexahydro-2H-spiro[furan-3,6′-indazole]-3′-carboxamide]
pKi: 7.25

CC1CCc2c(C(=O)Nc3cnn(Cc4ccccc4)c3)n[nH]c2C1 (single isomer, unassigned) [Example 9a, N-(1-benzyl-1H-pyrazol-4-yl)-6-methyl-4,5,6,7-tetrahydro-1H-indazole-3-carboxamide]
pKi: 7.08

O=C(Nc1cnn(Cc2ccccc2)c1)c1n[nH]c2c1CCC1(CCOC1)C2 (stereo not shown) [Example 65a, N-(1-benzyl-1H-pyrazol-4-yl)-1′,4,4′,5,5′,7′-hexahydro-2H-spiro[furan-3,6′-indazole]-3′-carboxamide]
pKi: 7.38

COC1(C)CCc2c(C(=O)Nc3cnn(Cc4ccccc4)c3)n[nH]c2C1 (single isomer, unassigned) [Example 48b, N-(1-benzyl-1H-pyrazol-4-yl)-6-methoxy-6-methyl-4,5,6,7-tetrahydro-1H-indazole-3-carboxamide]
pKi: 6.55

Cc1cccc(C(CCN(C)C)n2cc(NC(=O)c3n[nH]c4c3CCC(C)(C)C4)cn2)c1 (single isomer, unassigned) [Example 36a, N-(1-(3-(dimethylamino)-1-(m-tolyl)propyl)-1H-pyrazol-4-yl)-6,6-dimethyl-4,5,6,7-tetrahydro-1H-indazole-3-carboxamide]
pKi: 9.15

O=C(Nc1cnn(Cc2ccccc2)c1)c1n[nH]c2c1CCC(F)(F)C2 [Example 18, N-(1-benzyl-1H-pyrazol-4-yl)-6,6-difluoro-4,5,6,7-tetrahydro-1H-indazole-3-carboxamide]
pKi: 6.74

O=C(Nc1cnn(Cc2ccccc2)c1)c1n[nH]c2c1CC1CC1C2 (single isomer, unassigned) [Example 22a, N-(1-benzyl-1-pyrazol-4-yl)-1,4,4a,5,5a,6-hexahydrocyclopropa[f]indazole-3-carboxamide]
pKi: 6.72
